Here are results for two compounds from ChEMBL document CHEMBL1121722, “Nonquaternary cholinesterase reactivators. Dialkylaminoalkyl thioesters of alpha-ketothiohydroximic acids as reactivators of diisopropyl phosphorofluoridate inhibited acetylcholinesterase” (1981).

By UniProt entry, the sequences of proteins in these tests, tags left out. Where a name states a change or a piece, a line headed by the entry shows the natural chain unless it says otherwise.
UniProt P22303: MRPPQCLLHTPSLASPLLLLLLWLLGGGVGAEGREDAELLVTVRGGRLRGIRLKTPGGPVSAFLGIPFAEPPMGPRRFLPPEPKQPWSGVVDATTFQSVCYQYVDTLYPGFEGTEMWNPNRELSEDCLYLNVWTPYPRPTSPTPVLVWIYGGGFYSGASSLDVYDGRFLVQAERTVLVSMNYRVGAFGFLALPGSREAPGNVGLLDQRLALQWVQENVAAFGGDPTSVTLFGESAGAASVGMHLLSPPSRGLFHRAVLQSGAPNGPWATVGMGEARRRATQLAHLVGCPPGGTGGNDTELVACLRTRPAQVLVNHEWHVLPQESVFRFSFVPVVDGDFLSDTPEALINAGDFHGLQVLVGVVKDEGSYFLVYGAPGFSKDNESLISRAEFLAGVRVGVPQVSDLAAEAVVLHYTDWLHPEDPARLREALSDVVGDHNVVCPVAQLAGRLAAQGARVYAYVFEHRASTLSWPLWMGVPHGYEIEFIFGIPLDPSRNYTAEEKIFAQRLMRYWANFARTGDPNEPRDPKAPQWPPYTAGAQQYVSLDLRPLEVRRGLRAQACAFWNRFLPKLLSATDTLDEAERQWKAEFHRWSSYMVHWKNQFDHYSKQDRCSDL

In experiment [1] the target is Acetylcholinesterase (Homo sapiens) (UniProt P22303). Kind of experiment: Kinetic constant was determined for reactivation of acetylcholinesterase at concentration of 20 M*10e4 [HOX] and 1.33Me-1*10e-3 [OX]e-1; (kobsd-ka)e-1, min.
Experiment [2] has the same target. Put plainly: Maximum attainable percent reactivation obtained for a range of concentrations of 2M*10e4 HOX and 0.752M*10e4OX.
For experiment [3] the target is unchanged. Put plainly: Ratio of [EOP'']infinity to that of [EOH]infinity for reactivation of acetylcholinesterase at concentration of 10M*10e4 [HOX] and 2.66Me-1*10e-3 [OX]e-1; Expressed as [EOP'']infinity/[EOH]infinity.
For experiment [4] the target is unchanged. Put plainly: kr for reactivation of acetylcholinesterase at concentration of 2M*10e4 [HOX] and 13.3Me-1*10e-3 [OX]e-1 was determined; Expressed as kr, M*10e3.
Experiment [5] has the same target. Put plainly: Kinetic constant was determined for reactivation of acetylcholinesterase at concentration of 12M*10e4 [HOX] and 2.20 Me-1*10e-3 [OX]e-1; (kobsd-ka)e-1, min.
The target is the same in experiment [6]. Put plainly: Ratio of [EOP'']infinity to that of [EOH]infinity for reactivation of acetylcholinesterase at concentration of 6M*10e4 [HOX] and 4.42Me-1*10e-3 [OX]e-1; Expressed as [EOP'']infinity/[EOH]infinity.
For experiment [7] the target is unchanged. Kind of experiment: keff for reactivation of acetylcholinesterase at concentration of 2M*10e4 [HOX] and 13.3Me-1*10e-3 [OX]e-1 was determined; Expressed as keff, 1/M 1/min.
Experiment [8] shares this target. Put plainly: Maximum attainable percent reactivation obtained for a range of concentrations of 4M*10e4 HOX and 1.52M*10e4OX.
For experiment [9] the target is unchanged. Put plainly: Pseudo first order observed rate constants for reactivation of acetylcholinesterase at 6M*10e4 HOX and 2.26M*10e4OX; Kobs (min-1 X 10e3).
The target is the same in experiment [10]. Put plainly: Ratio of [EOP'']infinity to that of [EOH]infinity for reactivation of acetylcholinesterase at concentration of 2M*10e4 [HOX] and 13.3Me-1*10e-3 [OX]e-1; Expressed as [EOP'']infinity/[EOH]infinity.
Experiment [11] has the same target. Put plainly: Maximum attainable percent reactivation obtained for a range of concentrations of 0.0100 M*10e4 HOX and 0.0289 M *10e4OX; No affinity point measured.
Experiment [12] has the same target. Kind of experiment: Pseudo first order observed rate constants for reactivation of acetylcholinesterase at 010 M *10e4 HOX and 2.89M*10e4OX; Kobs (min-1 X 10e3).
Experiment [13] has the same target. Kind of experiment: kr for reactivation of acetylcholinesterase at concentration of 2M*10e4 [HOX] and 10 Me-1*10e-3 [OX]e-1 was determined; Expressed as kr, M*10e3.
For experiment [14] the target is unchanged. Put plainly: Pseudo first order observed rate constants for reactivation of acetylcholinesterase at 0.0300 M *10e4 HOX and 0.00870 M*10e4OX; Kobs (min-1 X 10e3).
Experiment [15] has the same target. Put plainly: Ratio of [EOP'']infinity to that of [EOH]infinity for reactivation of acetylcholinesterase at concentration of 0.100 M *10e4 [HOX] and 346Me-1*10e-3 [OX]e-1; Expressed as [EOP'']infinity/[EOH]infinity.
Experiment [16] has the same target. Kind of experiment: keff (rel) for reactivation of acetylcholinesterase at concentration of 2M*10e4 [HOX] and 10 Me-1*10e-3 [OX]e-1 was determined; Expressed as keff (rel).
For experiment [17] the target is unchanged. Put plainly: Maximum attainable percent reactivation obtained for a range of concentrations of 0.200 M*10e4 HOX and 0.0571 M*10e4OX; No affinity point measured.
Experiment [18] has the same target. Put plainly: Ratio of [EOP'']infinity to that of [EOH]infinity for reactivation of acetylcholinesterase at concentration of 0.0300 M *10e4 [HOX] and 1156Me-1*10e-3 [OX]e-1; Expressed as [EOP'']infinity/[EOH]infinity.
Experiment [19] has the same target. Kind of experiment: Ratio of Kr/kmax for reactivation of acetylcholinesterase at concentration of 2M*10e4 [HOX] and 10 Me-1*10e-3 [OX]e-1 was determined; Expressed as Kr/kmax, M-min*10e2.
Experiment [20] shares this target. Put plainly: 1/kmax for reactivation of acetylcholinesterase at concentration of 2M*10e4 [HOX] and 10 Me-1*10e-3 [OX]e-1 was determined; Expressed as 1/kmax, min.
Experiment [21] has the same target. Put plainly: Maximum attainable percent reactivation obtained for a range of concentrations of 0.0300 M *10e4 HOX and 0.00870 M*10e4OX.
For experiment [22] the target is unchanged. Kind of experiment: keff for reactivation of acetylcholinesterase at concentration of 2M*10e4 [HOX] and 10 Me-1*10e-3 [OX]e-1 was determined; Expressed as keff, 1/M 1/min.
For experiment [23] the target is unchanged. Kind of experiment: Maximum attainable percent reactivation obtained for a range of concentrations of 10M*10e4 HOX and 2.89M*10e4OX.

Each structure is given as a SMILES string.

`CCN(CC)CCS/C(=N\O)C(=O)c1ccc(OC)cc1`: the 1/kobsd-ka in experiment [1] was determined as 164 min; in experiment [5], 187 min. Further, the Reactivation in experiment [2] was found to be 3.3%; in experiment [8], 3.49%. In addition, the results for the [EOP']infinity/[EOH]infinity in experiment [3], in experiment [6] and in experiment [10] were 0.742, 1.26 and 2.69, respectively. Besides, in experiment [4], the kr stood at 8600 min⁻¹. The compound further had a k eff in experiment [7] of 0.183 M⁻¹ s⁻¹. In addition, in experiment [9], the k obs was found to be 85.7 s⁻¹.

In the case of `C[n+]1ccccc1C=NO`, the Reactivation result is “No affinity point measured” in experiment [11], “No affinity point measured” in experiment [17], 3.93% in experiment [21] and 4.49% in [23]. Also, the k obs in experiment [12] was found to be 2090 s⁻¹; in experiment [14] it was 110 s⁻¹. The compound further yielded a kr in experiment [13] of 61000 min⁻¹. In addition, the “[EOP']infinity/[EOH]infinity” value was “n” in experiment [15] and 0.964 in experiment [18]. Further, the k eff (rel) in [16] was found to be 145. Besides, in experiment [19], the Kr/kmax stood at 1.7 M-min. The same compound showed a 1/kmax in [20] of 15 min. This compound came in with a k eff in experiment [22] of 26.7 M⁻¹ s⁻¹.
